The test system of this test is cultured human adipocytes. Nature of the test: In vitro lipolysis assay (glycerol release) in cultured adipocytes. The format is cell-based. On the procedure: In the in vitro lipolysis assay, glycerol was detected in cell culture media via a spectrophotometric measurement after chemical oxidation with hydrogen peroxide. Glycerol was measured over a three hour time period. Levels of lipolysis in cultured human adipocytes were tested after exposure to a beta agonist alone, a glucocorticosteroid alone, or the combination of the two for one or more preincubation periods as described in more detail below.
Human subcutaneous adipocytes were used in the lipolysis assay. Adipose tissue was harvested from liposuction or lipectomy and pre-adipocytes were isolated as follows. Briefly, fat tissue was minced and incubated at 37° C. in Krebs-Ringer bicarbonate buffer containing 1% bovine serum albumin and 0.1% collagenase in an oxygen-rich shaking chamber (5% CO2; 75 strokes/min) for 1 hour. The suspension was filtered through a 400 tim nylon mesh and centrifuged for 1 mm at 100 g. The pre-adipocytes in the […] were washed twice with and then plated in 96 well plates at a density of cells/well. The pre-adipocytes were cultured in maintenance medium for seven days as they differentiated into adipocytes.
At −21 hours before the lipolysis assay, medium was removed from each well and replaced with 75 μl of Maintenance Medium containing appropriate drug or DMSO (vehicle) concentrations (see Experimental Design section below). Each test drug or control treatment was applied to 8 wells/group (12 treatment groups per 96-well plate). At −3 hours prior to the lipolysis assay, each well was washed two times with Wash Buffer (200 μl/wash), filled with test or control solutions made up in Assay Buffer (75 μl/well), and then incubated for three hours, i.e., until measurement of glycerol content in the Assay Buffer. For some groups, a drug was only added for the three hour incubation period (see Experimental and Control Groups Below).
The glycerol content of the Assay Buffer from each well following the incubation was used as an index for lipolysis, where an increase in glycerol indicated lipolysis. Glycerol levels were assayed colorimetrically via a commercial glycerol assay kit (Randox Laboratory, United Kingdom) and quantified by comparison to a glycerol serial dilution standard curve (3 μM-200 μM). Glycerol concentrations for each well were normalized to cell density.
In each of the following control or experimental groups n=8 corresponding to the glycerol measurements for 8 wells from a 96-well cell culture plate.

Entries after “also recorded” stand apart in the source; their conditions may differ.

Regarding `OCc1cc(C(O)CNCCCCCCOCCCCc2ccccc2)ccc1O` (racemic) [Salmeterol, ±2-(hydroxymethyl)-4-[1-hydroxy-2-[6-(4-phenylbutoxy)hexylamino]ethyl]-phenol], the “effect on lipolysis in cultured adipocytes (words)” value is reported as “decreases lipolysis; also recorded: dose-dependent suppression of lipolysis” (18 hour incubation, Salmeterol 10^−6 M or 10^−8 M, Budesonide 10^−6 M, Isoproterenol 10^−6 M); “dose-dependent induction of lipolysis” (three hour incubation); “effectively induce lipolysis” (three hour incubation, listed as salmeterol). Moreover, the “increase in lipolysis relative to negative control” value (three hour incubation, glycerol in Assay Buffer, isoproterenol 10^−6 M) is listed as “slightly greater than two fold”. Also, the “lipolysis compared with isoproterenol (positive control)” value (three hour incubation, isoproterenol 10^−6 M) is “equal to or less than that observed for Isoproterenol”.

The values are drawn from patent US20100119609A1, “METHODS, COMPOSITIONS, AND FORMULATIONS FOR THE TREATMENT OF THYROID EYE DISEASE” (priority 2006, published 2010).
